Target: NE uptake (Rattus norvegicus, UniProt Q63380)
Assay: Neurotransmitter uptake inhibition: NE uptake, crude synaptosomal preparation
Type: biochemical
Procedure: Male Sprague-Dawley rats (180-260 g, Charles River) were used in all neurochemical assays. Rats were housed in temperature-controlled quarters on a 12 hr light/12 hr dark cycle with free access to food and water.
Neurotransmitter Uptake Inhibition
Uptake experiments were performed using a crude synaptosomal preparation made from the brain tissue of adult male Sprague-Dawley rats. The cortex of 1 rat for NE and 5-HT uptake was removed on ice and homogenized in 20 volumes of 0.32 M sucrose/g tissue weight using a Potter-Elvehjem teflon homogenizer (3 strokes at 840 rpm). The homogenate was then centrifuged for 12 minutes at 1,000×g at 0-4° C. The resulting supernatant was decanted into a chilled glass beaker and kept on ice until assayed. Protein concentration was determined by the method of Lowry et al. (1).
For these experiments, all compounds were run in duplicate in concentrations of 0.003-30.0 μM. Each tube received buffer (790 μl in drug tubes, 800 μl in control tubes), 10 μl of drug or standard. (0.1 μM DMI for NE uptake and 3.0 μM zimelidine HCl for 5-HT uptake), 100 μl isotope (0.1 μM ^3H—NE and 0.05 μM ^14C-5-HT), and 100 μl tissue. […] Filters were added to 10 ml Hydrofluor, shaken for 15 minutes and counted in a Packard 460CD scintillation counter equipped with dual-label dpm data reduction. Results were expressed as pmol uptake/mg protein/min.

By UniProt entry, the sequences of proteins in these tests, tags left out. Residues count along the entry.
UniProt Q63380, 1-617: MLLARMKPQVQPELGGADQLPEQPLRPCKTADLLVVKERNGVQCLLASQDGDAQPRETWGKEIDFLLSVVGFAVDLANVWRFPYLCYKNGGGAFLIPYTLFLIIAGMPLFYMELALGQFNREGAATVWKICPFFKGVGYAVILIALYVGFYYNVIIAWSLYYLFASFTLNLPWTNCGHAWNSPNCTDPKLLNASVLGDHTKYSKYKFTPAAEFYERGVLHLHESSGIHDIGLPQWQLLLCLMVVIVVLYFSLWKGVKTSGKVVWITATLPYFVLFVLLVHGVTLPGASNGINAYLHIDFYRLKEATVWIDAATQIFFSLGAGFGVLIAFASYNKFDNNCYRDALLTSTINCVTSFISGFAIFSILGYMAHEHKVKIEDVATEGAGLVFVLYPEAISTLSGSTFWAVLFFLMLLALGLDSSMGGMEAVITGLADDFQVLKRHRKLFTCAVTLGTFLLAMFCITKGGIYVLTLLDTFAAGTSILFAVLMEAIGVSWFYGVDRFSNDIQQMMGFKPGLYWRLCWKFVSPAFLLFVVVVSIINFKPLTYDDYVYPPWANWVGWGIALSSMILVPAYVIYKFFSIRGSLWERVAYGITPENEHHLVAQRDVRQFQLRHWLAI

## COc1ccc(C(CN(C)C)C2(O)CCCCC2)cc1 (racemic) [Venlafaxine, (R/S)-1-[2-(dimethylarino)-1-(4-methoxyphenyl)ethyl]cyclohexanol, reference compound]
  IC50: 720 nM

Reference: patent publication US20040176468A1 (Wyeth, priority 1999, published 2004)
